Here are results for one molecule from BindingDB's records for 21866885.

Amino acid sequences for entries named in this document (tags omitted).
UniProt P41143, whole entry, looked up: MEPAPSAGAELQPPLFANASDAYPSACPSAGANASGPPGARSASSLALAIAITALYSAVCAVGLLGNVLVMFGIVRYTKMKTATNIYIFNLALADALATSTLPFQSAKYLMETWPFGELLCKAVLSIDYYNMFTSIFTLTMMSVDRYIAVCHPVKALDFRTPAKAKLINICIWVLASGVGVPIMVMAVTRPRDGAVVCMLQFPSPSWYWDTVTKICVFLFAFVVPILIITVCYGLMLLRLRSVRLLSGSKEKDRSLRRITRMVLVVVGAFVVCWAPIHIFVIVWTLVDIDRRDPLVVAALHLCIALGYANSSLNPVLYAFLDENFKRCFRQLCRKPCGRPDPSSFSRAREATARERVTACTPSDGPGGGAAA

This assay has as its target Delta-type opioid receptor (Homo sapiens, UniProt P41143). Put plainly: Displacement of [3H]Cl-DPDPE from human DOP receptor expressed in CHO cells after 60 mins by scintillation counting.

A value given as a limit tells only on which side of the number the result lay.

The molecule `CN(C(=O)Cc1ccccc1)[C@H]1C[C@@]2(CCCO2)CC[C@@H]1N1CCCC1` gave a Ki above 10 µM.

Usually Ki stands for the dissociation constant of the complex between target and ligand, obtained from inhibition or displacement. A lower Ki goes with a stronger hold on the target.
